Antibody variant affinities, Ab-14 heavy chain, assay 1

From the AlphaSeq antibody data of Engelhart et al. 2022 (doi:10.1038/s41597-022-01779-4), copy in the FLAb collection.

Antigen: PDVDLGDISGINAS, a 14-residue peptide of the SARS-CoV-2 spike HR2 region.

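AAYL49 was designed without a model: most single CDR substitutions and a random sample of double and triple ones. Affinity was read by AlphaSeq, a pooled yeast mating assay with surface-displayed partners. Mating (16 h, 30 °C) was followed by selection of diploids and sequencing of their barcodes. Read counts were normalised to the haploid input and turned into Kd by a linear fit to BCL2-family pairs of known affinity, for each replicate. There are three technical replicates.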

Ab-14 is the parent antibody, in scFv form: VH, then three GGGGS repeats, then VL. The light chain is unchanged in all variants.
VH: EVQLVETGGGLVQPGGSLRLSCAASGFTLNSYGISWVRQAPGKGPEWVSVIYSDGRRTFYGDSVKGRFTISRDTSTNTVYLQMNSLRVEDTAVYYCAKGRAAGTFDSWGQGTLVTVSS
VL: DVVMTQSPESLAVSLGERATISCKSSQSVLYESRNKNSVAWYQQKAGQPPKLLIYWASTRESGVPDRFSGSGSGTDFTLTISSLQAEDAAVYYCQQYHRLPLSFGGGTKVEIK

The whole VH of each variant is written out.
Every variant below is changed at G33 of the VH (sequential numbering).
Kd is apparent (estimated from mating counts) and averaged on the log scale over replicates with a signal. Smaller is tighter.
Where no diploid with the target was found in any replicate, the entry reads "nd": below detection, most likely a poor binder, though not proof of it.
Nonspecific signal, from three strains lacking the peptide, appeared in 15% of pairings of library AAYL49, centred on 11 µM (5% of these signals below 680 nM); values are not corrected for it.

* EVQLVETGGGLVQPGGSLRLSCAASGFTLNSYDISWVRQAPGKGPEWVSVIYSDGRHTFYGDSVKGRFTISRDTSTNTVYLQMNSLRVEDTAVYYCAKGRAAQTFDSWGQGTLVTVSS: 160 nM (3 of 3 replicates)
* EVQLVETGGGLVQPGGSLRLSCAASGFTLNSYYISWVRQAPGKGPEWVSVIYSDGRRTFYGDSVKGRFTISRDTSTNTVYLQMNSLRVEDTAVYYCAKGRAAATFPSWGQGTLVTVSS: 52 µM (1 of 3 replicates)
* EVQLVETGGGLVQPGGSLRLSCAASGFTLNSYAPSWVRQAPGKGPEWVSVIYSDGRRTFYGDSVKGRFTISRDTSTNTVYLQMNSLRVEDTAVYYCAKGRAAGTFDSWGQGTLVTVSS: nd (0 of 3 replicates)
* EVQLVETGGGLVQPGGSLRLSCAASNFTLNSYLISWVRQAPGKGPEWVSVIYSDGRRTFYGDSVKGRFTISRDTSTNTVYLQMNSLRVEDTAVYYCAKGRAAGTFQSWGQGTLVTVSS: 140 µM (3 of 3 replicates)
* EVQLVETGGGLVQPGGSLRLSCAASTFTLNSYQISWVRQAPGKGPEWVSVIYSDGRRTFYGDRVKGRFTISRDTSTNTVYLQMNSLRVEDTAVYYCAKGRAAGTFDSWGQGTLVTVSS: 1.5 µM (3 of 3 replicates)
* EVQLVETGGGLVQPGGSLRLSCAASGFTLNSYHISWVRQAPGKGPEWVSVIYSKGRRTFYGDSVKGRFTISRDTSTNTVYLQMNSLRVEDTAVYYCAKGRQAGTFDSWGQGTLVTVSS: nd (0 of 3 replicates)
* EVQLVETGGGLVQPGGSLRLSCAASGFTLNSYAIHWVRQAPGKGPEWVSVIYSDGRRSFYGDSVKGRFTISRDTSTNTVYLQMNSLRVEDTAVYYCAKGRAAGTFDSWGQGTLVTVSS: nd (0 of 3 replicates)
* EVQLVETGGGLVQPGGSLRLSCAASGFTLNSYIISWVRQAPGKGPEWVSVIYSDGRRTFYGDTVKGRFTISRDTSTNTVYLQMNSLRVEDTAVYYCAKGRAHGTFDSWGQGTLVTVSS: 400 µM (2 of 3 replicates)
* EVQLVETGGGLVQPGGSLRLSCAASGFTLNSYQISWVRQAPGKGPEWVSVIYSDGRRTFYGDSVKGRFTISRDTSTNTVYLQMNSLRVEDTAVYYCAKGLQAGTFDSWGQGTLVTVSS: nd (0 of 3 replicates)
* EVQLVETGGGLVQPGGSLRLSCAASGFTLNSYSISWVRQAPGKGPEWVSVIYSDGRRTFYGDSVKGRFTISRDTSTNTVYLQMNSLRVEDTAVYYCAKGRAAGNFDSWGQGTLVTVSS: 2.8 µM (1 of 3 replicates)
* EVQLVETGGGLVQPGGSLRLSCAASTFTLNSYFISWVRQAPGKGPEWVSVIYSDGRRTFYTDSVKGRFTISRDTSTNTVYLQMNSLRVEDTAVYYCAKGRAAGTFDSWGQGTLVTVSS: 2.6 µM (1 of 3 replicates)
* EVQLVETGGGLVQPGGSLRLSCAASGFTLNSYWISWVRQAPGKGPEWVSVIYSDGRRTFYHDSVKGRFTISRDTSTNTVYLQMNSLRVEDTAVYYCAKGRAAGKFDSWGQGTLVTVSS: nd (0 of 3 replicates)
* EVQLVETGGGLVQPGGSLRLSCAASGFTLNSYQISWVRQAPGKGPEWVSVIYSDGRRTFYGDSVHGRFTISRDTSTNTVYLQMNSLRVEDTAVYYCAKGRAAGTFDSWGQGTLVTVSS: nd (0 of 3 replicates)
* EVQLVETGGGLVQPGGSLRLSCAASGFTYNSYDISWVRQAPGKGPEWVSVIMSDGRRTFYGDSVKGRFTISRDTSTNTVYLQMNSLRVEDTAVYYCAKGRAAGTFDSWGQGTLVTVSS: 130 µM (1 of 3 replicates)
* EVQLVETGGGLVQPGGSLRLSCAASGFTLNSYAISWVRQAPGKGPEWVSVIYRDGRRTFYGDSVKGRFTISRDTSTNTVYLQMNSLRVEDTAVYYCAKGRCAGTFDSWGQGTLVTVSS: nd (0 of 3 replicates)
* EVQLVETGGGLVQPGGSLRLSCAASGFTLNSYMISWVRQAPGKGPEWVSVIYSDGRRTEYGDSVKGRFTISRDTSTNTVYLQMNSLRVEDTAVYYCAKGRAAGTFRSWGQGTLVTVSS: nd (0 of 3 replicates)
* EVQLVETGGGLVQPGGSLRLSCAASGFTLNSYRISWVRQAPGKGPEWVSVIYSLGRRTFYGDSVKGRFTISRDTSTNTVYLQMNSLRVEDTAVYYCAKGRAAGTFDSWGQGTLVTVSS: 110 µM (1 of 3 replicates)
* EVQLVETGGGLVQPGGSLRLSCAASGFTLNSFFISWVRQAPGKGPEWVSVIYSDGRRTFYGDSVAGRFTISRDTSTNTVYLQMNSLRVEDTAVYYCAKGRAAGTFDSWGQGTLVTVSS: 320 µM (1 of 3 replicates)
* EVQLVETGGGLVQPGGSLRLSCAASGFTLNSYSISWVRQAPGKGPEWVSVHYSDGRRTVYGDSVKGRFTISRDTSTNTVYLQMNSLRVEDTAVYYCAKGRAAGTFDSWGQGTLVTVSS: nd (0 of 3 replicates)
* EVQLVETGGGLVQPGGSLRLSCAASGFTLNSYYIWWVRQAPGKGPEWVSVIISDGRRTFYGDSVKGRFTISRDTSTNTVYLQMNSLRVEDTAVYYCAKGRAAGTFDSWGQGTLVTVSS: 7.4 µM (1 of 3 replicates)
* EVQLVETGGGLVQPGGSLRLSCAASGFTLNSWNISWVRQAPGKGPEWVSVIYSSGRRTFYGDSVKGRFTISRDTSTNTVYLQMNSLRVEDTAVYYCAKGRAAGTFDSWGQGTLVTVSS: 790 nM (1 of 3 replicates)
* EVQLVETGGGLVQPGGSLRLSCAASGFTLNSREISWVRQAPGKGPEWVSVIYSDGRRTFYGDLVKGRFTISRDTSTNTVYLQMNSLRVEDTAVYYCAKGRAAGTFDSWGQGTLVTVSS: nd (0 of 3 replicates)
* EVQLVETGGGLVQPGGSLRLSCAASGFTPNSYPISWVRQAPGKGPEWVSVIYSDGRRTFYADSVKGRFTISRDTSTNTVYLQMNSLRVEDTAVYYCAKGRAAGTFDSWGQGTLVTVSS: 1.4 mM (2 of 3 replicates)
* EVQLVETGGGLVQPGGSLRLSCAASGFTLNSYAISWVRQAPGKGPEWVSVIYSDGRRTFYGDSVKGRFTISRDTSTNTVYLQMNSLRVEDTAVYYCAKGRPAGTFDSWGQGTLVTVSS: 5.5 µM (1 of 3 replicates)

Excerpt, the first 2 entries:

- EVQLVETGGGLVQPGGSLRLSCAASGFTLNSYDISWVRQAPGKGPEWVSVIYSDGRHTFYGDSVKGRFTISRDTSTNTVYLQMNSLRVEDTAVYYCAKGRAAQTFDSWGQGTLVTVSS -> 160 nM (3 of 3 replicates)
- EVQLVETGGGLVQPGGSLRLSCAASGFTLNSYYISWVRQAPGKGPEWVSVIYSDGRRTFYGDSVKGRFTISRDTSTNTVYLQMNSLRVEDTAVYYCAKGRAAATFPSWGQGTLVTVSS -> 52 µM (1 of 3 replicates)